# According to publication PMC4749168, “Potentiation of ΔF508- and G551D-CFTR-Mediated Cl^- Current by Novel Hydroxypyrazolines” (PLoS ONE, 2016):
# Sequences of proteins named here, by UniProt entry; tags and fusion partners are left off. A change or cut given only in a name is not applied to a line headed by its entry. A line that says so, or that is headed by a name, gives the form on record, which may keep a tag or linker. Residues count along the entry.
# UniProt P13569, 1-1480 with tags or gaps DEL508-508: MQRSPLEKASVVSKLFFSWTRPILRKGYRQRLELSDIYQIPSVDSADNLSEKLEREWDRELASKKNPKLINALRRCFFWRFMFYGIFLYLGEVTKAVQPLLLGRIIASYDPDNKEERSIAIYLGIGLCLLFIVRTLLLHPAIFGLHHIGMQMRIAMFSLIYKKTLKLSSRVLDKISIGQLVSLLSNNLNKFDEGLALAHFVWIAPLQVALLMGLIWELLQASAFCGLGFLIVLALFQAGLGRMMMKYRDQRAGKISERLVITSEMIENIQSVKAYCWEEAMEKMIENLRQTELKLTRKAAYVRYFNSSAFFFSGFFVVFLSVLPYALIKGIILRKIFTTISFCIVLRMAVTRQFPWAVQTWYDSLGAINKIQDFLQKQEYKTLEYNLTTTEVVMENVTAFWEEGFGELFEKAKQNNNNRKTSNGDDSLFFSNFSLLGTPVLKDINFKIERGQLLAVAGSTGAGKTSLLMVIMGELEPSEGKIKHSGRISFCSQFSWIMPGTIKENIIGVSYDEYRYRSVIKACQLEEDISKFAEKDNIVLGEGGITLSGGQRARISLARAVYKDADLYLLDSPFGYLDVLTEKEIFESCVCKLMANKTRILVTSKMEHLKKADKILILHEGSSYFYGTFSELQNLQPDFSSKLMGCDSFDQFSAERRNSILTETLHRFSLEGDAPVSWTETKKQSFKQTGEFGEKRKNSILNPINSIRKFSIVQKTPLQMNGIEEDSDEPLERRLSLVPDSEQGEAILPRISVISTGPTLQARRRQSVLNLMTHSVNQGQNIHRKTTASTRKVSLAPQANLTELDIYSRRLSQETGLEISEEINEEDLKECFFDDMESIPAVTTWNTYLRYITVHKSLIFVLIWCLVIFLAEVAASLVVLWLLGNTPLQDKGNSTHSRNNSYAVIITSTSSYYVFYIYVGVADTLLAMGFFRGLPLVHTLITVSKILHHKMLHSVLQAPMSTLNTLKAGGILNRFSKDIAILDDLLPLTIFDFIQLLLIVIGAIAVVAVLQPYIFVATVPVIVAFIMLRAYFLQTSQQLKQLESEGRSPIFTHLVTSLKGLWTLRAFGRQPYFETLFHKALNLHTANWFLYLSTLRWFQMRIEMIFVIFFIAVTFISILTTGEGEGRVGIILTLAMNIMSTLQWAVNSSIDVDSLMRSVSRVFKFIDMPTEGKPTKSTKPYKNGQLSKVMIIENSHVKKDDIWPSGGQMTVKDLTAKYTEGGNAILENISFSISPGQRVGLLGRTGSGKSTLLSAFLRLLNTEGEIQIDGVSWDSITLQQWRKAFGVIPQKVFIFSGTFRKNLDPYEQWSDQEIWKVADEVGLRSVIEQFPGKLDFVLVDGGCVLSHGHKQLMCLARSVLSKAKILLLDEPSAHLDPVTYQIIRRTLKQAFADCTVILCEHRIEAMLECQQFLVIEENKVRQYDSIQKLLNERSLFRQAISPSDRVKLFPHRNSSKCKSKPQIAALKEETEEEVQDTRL
# UniProt P13569, whole entry: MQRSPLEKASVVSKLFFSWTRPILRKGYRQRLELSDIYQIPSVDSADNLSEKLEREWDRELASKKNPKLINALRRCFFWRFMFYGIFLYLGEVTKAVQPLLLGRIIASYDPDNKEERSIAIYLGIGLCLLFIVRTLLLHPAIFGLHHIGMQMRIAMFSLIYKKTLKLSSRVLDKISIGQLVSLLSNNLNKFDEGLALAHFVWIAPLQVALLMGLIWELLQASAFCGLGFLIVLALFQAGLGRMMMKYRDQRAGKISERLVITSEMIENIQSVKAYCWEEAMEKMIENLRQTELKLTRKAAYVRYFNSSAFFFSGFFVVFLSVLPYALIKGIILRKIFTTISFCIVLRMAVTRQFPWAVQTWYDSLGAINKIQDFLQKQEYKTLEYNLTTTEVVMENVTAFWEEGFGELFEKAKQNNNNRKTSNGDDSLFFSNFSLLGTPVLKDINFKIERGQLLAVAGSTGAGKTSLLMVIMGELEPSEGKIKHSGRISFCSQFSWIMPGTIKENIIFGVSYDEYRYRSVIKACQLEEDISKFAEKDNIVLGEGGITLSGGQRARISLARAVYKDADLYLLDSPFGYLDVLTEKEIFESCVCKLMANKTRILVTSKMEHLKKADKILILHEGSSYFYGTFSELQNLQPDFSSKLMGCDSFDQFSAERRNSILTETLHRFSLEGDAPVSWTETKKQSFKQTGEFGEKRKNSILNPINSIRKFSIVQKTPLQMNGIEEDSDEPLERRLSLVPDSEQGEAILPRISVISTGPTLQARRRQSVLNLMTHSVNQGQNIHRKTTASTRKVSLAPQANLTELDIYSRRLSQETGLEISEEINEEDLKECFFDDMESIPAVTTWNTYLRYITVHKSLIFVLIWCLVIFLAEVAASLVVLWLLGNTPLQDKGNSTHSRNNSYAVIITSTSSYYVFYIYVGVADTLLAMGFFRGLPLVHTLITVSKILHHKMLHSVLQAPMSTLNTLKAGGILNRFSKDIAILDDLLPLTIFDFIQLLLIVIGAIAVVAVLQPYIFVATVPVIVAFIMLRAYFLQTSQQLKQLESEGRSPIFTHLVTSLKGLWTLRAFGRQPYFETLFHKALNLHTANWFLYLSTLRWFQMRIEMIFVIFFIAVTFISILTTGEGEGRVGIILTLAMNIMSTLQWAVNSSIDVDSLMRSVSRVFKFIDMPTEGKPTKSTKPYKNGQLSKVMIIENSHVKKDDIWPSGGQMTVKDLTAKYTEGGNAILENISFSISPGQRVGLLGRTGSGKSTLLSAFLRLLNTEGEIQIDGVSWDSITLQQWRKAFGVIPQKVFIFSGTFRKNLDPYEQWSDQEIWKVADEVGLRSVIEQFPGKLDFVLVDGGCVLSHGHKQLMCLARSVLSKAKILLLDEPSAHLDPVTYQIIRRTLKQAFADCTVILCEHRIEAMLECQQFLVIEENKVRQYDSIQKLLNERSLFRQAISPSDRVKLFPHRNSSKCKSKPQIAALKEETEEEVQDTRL
# Where “and” joins values, the source holds several entries; their conditions need not be identical. Equal entries are not always repeated.
# Assays:
# ΔF508-CFTR = ΔF508-CFTR (Homo sapiens, UniProt P13569, DEL508-508); test: Halide-sensitive YFP microplate reader assay of CFTR potentiation, ΔF508-CFTR; conditions: for EC50 (μM) ΔF508-CFTR: FRT cells rescued at 27°C, 10 μM forskolin; for EC50: read-out: EC50 (μM) ΔF508-CFTR, FRT cells rescued at 27°C, 10 μM forskolin
# Description: (§1) FRT cells expressing wild type- or ΔF508-CFTR with the halide sensor YFP-H148Q/I152L were plated in 96-well black-walled microplates (Corning Inc., Corning, NY) at a density of 2 x10^4cells per well. FRT-WT-CFTR-YFP cells were incubated for 48 h at 37°C, and FRT-ΔF508-CFTR-YFP cells were incubated for 24 h at 27°C after 24 h incubation at 37°C to rescue ΔF508-CFTR localization. Assays were done using FLUO star Omega microplate reader (BMG Labtech, Ortenberg, Germany) and MARS Data Analysis Software (BMG Labtech). Each well of a 96-well plate was washed 3 times in PBS (200 μL/wash). 100 μL PBS was added to each well. Forskolin (0.1 and 10 μM for WT- and ΔF508-CFTR, respectively) and test compounds (1 μL) were added to each well. After 10 min, 96-well plates were transferred to the microplate reader preheated to 37°C for fluorescence assay. Each well was assayed individually for CFTR-mediated I^- influx by recording fluorescence continuously (200 ms per point) for 2 s (baseline), then 100 μL of 140 mM I^- solution was added at 2 s and then YFP fluorescence was recorded for 14 s. Initial iodide influx rate was determined from the initial slope of fluorescence decrease, by nonlinear regression, following infusion of iodide.
# WT-CFTR = WT-CFTR (Homo sapiens, UniProt P13569); test: Halide-sensitive YFP microplate reader assay of CFTR potentiation, WT-CFTR; conditions: read-out: EC50 (μM) WT- CFTR, FRT cells, 0.1 μM forskolin
# Description: as §1
EC50 (μM) ΔF508-CFTR (ΔF508-CFTR),EC50 (WT-CFTR),EC50 (ΔF508-CFTR),SMILES
inactive,63.3 µM,–,COc1ccc(C2CC(c3c(O)cccc3OC)=NN2c2ccc(S(N)(=O)=O)cc2)c(OC)c1 (centres unmarked)
inactive,41.2 µM,–,COc1ccc(C2CC(c3cc(Cl)ccc3O)=NN2c2ccc(S(N)(=O)=O)cc2)cc1OC (centres unmarked)
inactive,13.1 µM,–,COc1ccc(C2CC(c3cc(Cl)ccc3O)=NN2c2ccc(S(N)(=O)=O)cc2)c(OC)c1 (centres unmarked)
inactive,10.9 µM,–,COc1ccc(C2CC(c3cc(C)ccc3O)=NN2c2ccc(S(N)(=O)=O)cc2)c(OC)c1 (centres unmarked)
–,8.7 µM,42.2 µM,COc1cccc(C2CC(c3c(O)cccc3O)=NN2c2ccc(S(N)(=O)=O)cc2)c1OC (centres unmarked)
inactive,92.5 µM,–,COc1cccc(C2CC(c3cc(Cl)ccc3O)=NN2c2ccc(S(N)(=O)=O)cc2)c1OC (centres unmarked)
–,27 µM,38.5 µM,COc1ccc(C2CC(c3c(O)cccc3O)=NN2c2ccc(S(N)(=O)=O)cc2)c(OC)c1 (centres unmarked)
–,12.7 µM,< 10 µM and 8.6 µM,COc1cccc(C2CC(c3ccc(O)cc3O)=NN2c2ccc(S(N)(=O)=O)cc2)c1OC (centres unmarked)
inactive,50.6 µM,–,COc1ccc(C2CC(c3c(O)cccc3OC)=NN2c2ccc(S(N)(=O)=O)cc2)cc1OC (centres unmarked)
inactive,24.3 µM,–,COc1ccc(C2CC(c3c(O)cccc3O)=NN2c2ccc(S(N)(=O)=O)cc2)cc1OC (centres unmarked)
inactive,56.5 µM,–,COc1cccc(C2CC(c3c(O)cccc3OC)=NN2c2ccc(S(N)(=O)=O)cc2)c1OC (centres unmarked)
–,2.4 µM,< 10 µM and 8.9 µM,COc1ccc(C2CC(c3ccc(O)cc3O)=NN2c2ccc(S(N)(=O)=O)cc2)cc1OC (centres unmarked)
–,38.6 µM,83 µM,COc1ccc(C2CC(c3cc(C)ccc3O)=NN2c2ccc(S(N)(=O)=O)cc2)cc1OC (centres unmarked)
